Source: US20240270753A1, “HETEROCYCLIC COMPOUND FOR INHIBITING SHP2 ACTIVITY, PREPARATION METHOD THEREFOR AND USE THEREOF” (SHANGHAI INSTITUTE OF MATERIA MEDICA, CHINESE ACADEMY OF …, priority 2021, published 2024)

Chains of the proteins cited; added tags and fusions are not shown.
UniProt Q06124, whole entry: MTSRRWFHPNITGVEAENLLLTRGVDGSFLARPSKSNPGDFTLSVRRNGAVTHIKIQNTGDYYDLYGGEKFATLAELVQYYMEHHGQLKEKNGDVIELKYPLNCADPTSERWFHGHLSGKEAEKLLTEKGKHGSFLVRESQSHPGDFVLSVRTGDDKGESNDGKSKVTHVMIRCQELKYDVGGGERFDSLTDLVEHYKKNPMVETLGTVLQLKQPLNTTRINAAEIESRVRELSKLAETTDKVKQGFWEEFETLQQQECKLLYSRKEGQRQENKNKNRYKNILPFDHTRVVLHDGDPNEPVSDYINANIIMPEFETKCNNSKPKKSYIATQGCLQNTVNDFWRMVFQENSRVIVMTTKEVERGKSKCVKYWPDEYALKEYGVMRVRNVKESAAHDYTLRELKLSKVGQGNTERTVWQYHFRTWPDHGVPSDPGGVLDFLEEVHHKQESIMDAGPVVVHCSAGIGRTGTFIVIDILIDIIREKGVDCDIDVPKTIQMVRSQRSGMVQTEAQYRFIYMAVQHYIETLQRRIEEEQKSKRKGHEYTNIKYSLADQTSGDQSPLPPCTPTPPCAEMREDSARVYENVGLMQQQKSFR

Legend:
[1] = system: MV4-11 cells; test: MV4-11 cell proliferation inhibition assay (MTS); format: cell-based; conditions: read-out: IC50, MV4-11 cell proliferation inhibition, MTS read on the third day
[2] = system: p-ERK 1/2 (Thr202/Tyr204) in MIAPaca-2 cells; test: Cell protein kinase (p-ERK) phosphorylation inhibition, AlphaLISA; conditions: read-out: IC50, p-ERK phosphorylation inhibition, treated for 2 hours
[3] = molecular target: full-length SHP2 (Met1-Arg 593) (Homo sapiens (Human), UniProt Q06124); test: Phosphatase activity inhibition assay (DiFMUP substrate); format: biochemical; conditions: read-out: IC50, SHP2 activity inhibition; peptide-activated full-length SHP2 0.5 nM, DiFMUP 25 μM

SMILES: C[C@@H]1OCC2(CCN(c3cnc(Sc4ccnc(C#Cc5cncn5C)c4Cl)c(N)n3)CC2)[C@@H]1N
- IC50 [1]: 21.8 nM

SMILES: C[C@@H]1OCC2(CCN(c3cnc(Sc4ccnc(C#Cc5ccccn5)c4Cl)c(N)n3)CC2)[C@@H]1N
- IC50 [2]: 1.7 nM
- IC50 [1]: 3.1 nM

SMILES: C[C@@H]1OCC2(CCN(c3cnc(Sc4ccnc(C#CC5CC5)c4Cl)c(N)n3)CC2)[C@@H]1N
- IC50 [1]: 14.8 nM

SMILES: CCn1cc(C#Cc2nccc(Sc3ncc(N4CCC5(CC4)CO[C@@H](C)[C@H]5N)nc3N)c2Cl)cn1
- IC50 [1]: 3.1 nM

SMILES: CC(=O)N1CCC(C#Cc2nccc(Sc3ncc(N4CCC5(CC4)CO[C@@H](C)[C@H]5N)nc3N)c2Cl)CC1
- IC50 [1]: 22.8 nM

SMILES: CC(C)n1cc(C#Cc2nccc(Sc3ncc(N4CCC5(CC4)CO[C@@H](C)[C@H]5N)nc3N)c2Cl)cn1
- IC50 [1]: 7.4 nM

SMILES: C[C@@H]1OCC2(CCN(c3cnc(Sc4ccnc(C#Cc5cnn(C)c5)c4Cl)c(N)n3)CC2)[C@@H]1N
- IC50 [2]: 3.2 nM
- IC50 [1]: 8.3 nM

SMILES: C[C@@H]1OCC2(CCN(c3cnc(Sc4ccnc(C#Cc5ccn(C)n5)c4Cl)c(N)n3)CC2)[C@@H]1N
- IC50 [1]: 2.3 nM

SMILES: C[C@@H]1OCC2(CCN(c3cnc(Sc4ccnc(C#Cc5cccnc5)c4Cl)c(N)n3)CC2)[C@@H]1N
- IC50 [1]: 14 nM

SMILES: C[C@@H]1OCC2(CCN(c3cnc(Sc4ccnc(C#Cc5ccncc5)c4Cl)c(N)n3)CC2)[C@@H]1N
- IC50 [1]: 20 nM
- IC50 [3]: 9.8 nM

SMILES: C[C@@H]1OCC2(CCN(c3cnc(Sc4ccnc(C#Cc5cnn(C6CC6)c5)c4Cl)c(N)n3)CC2)[C@@H]1N
- IC50 [1]: 4.1 nM

SMILES: C[C@@H]1OCC2(CCN(c3cnc(Sc4cccc(C#Cc5cccnc5)c4Cl)c(N)n3)CC2)[C@@H]1N
- IC50 [1]: 27 nM
- IC50 [3]: 7.2 nM

SMILES: C[C@@H]1OCC2(CCN(c3cnc(Sc4ccnc(C#Cc5cnccn5)c4Cl)c(N)n3)CC2)[C@@H]1N
- IC50 [1]: < 20 nM

SMILES: C[C@@H]1OCC2(CCN(c3cnc(Sc4ccnc(C#CC5CCOCC5)c4Cl)c(N)n3)CC2)[C@@H]1N
- IC50 [1]: 28.6 nM
- IC50 [3]: 20.7 nM

SMILES: C[C@@H]1OCC2(CCN(c3cnc(Sc4ccnc(C#Cc5cn(C)cn5)c4Cl)c(N)n3)CC2)[C@@H]1N
- IC50 [1]: < 20 nM

SMILES: C[C@@H]1OCC2(CCN(c3cnc(Sc4ccnc(C#CC5CCNCC5)c4Cl)c(N)n3)CC2)[C@@H]1N
- IC50 [1]: 94.9 nM

SMILES: Cc1noc(C)c1C#Cc1nccc(Sc2ncc(N3CCC4(CC3)CO[C@@H](C)[C@H]4N)nc2N)c1Cl
- IC50 [1]: 80.1 nM

SMILES: C[C@@H]1OCC2(CCN(c3cnc(Sc4cccc(C#Cc5cnn(C)c5)c4Cl)c(N)n3)CC2)[C@@H]1N
- IC50 [1]: 10.3 nM
- IC50 [3]: 9.8 nM

SMILES: C[C@@H]1OCC2(CCN(c3cnc(Sc4ccnc(C#Cc5cnc6cccnn56)c4Cl)c(N)n3)CC2)[C@@H]1N
- IC50 [1]: 23.5 nM
